Patent US20150018403A1, “FLUORENE-AMIDE COMPOUNDS AND PHARMACEUTICAL USE THEREOF” (JAPAN TOBACCO INC., priority 2013, published 2015)

Biological target: T1, human PDHK2 (hPDHK2) (Homo sapiens, UniProt Q15119)
T1 construct: made in house; host or cells: Escherichia coli BL21(DE3), pET17b vector
Assay: Inhibitory action of PDHK2 activity in vitro (residual PDH activity after kinase reaction)
Format: biochemical
Conditions: PDH/hPDHK2 complex, 45 min kinase reaction at room temperature
Procedure: The inhibitory action of PDHK activity was assessed indirectly by measuring the residual PDH activity after kinase reaction in the presence of a test compound.
In the case of human PDHK2 (hPDHK2, Genbank Accession No. BC040478.1), modified hPDHK2 cDNA wherein FLAG-Tag sequence was added to the N terminus of hPDHK2 cDNA clone (pReceiver-M01/PDK2-GeneCopoeia) was prepared by PCR and cloned into a vector (pET17b-Novagen). The recombinant construct was transformed into Escherichia coli (DH5α-TOYOBO). The recombinant clones were identified, and plasmid DNA was isolated and subjected to the DNA sequence analysis. One clone which had the expected nucleic acid sequence was selected for expression work. […]
0.05 U/mL PDH and 0.8 μg/mL hPDHK2 were mixed in a buffer (50 mmol/L 3-morpholinopropanesulfonic acid (pH 7.0), 20 mmol/L dipotassium hydrogen phosphate, 60 mmol/L potassium chloride, 2 mmol/L magnesium chloride, 0.4 mmol/L EDTA, and 0.2% Pluronic F-68, 2 mmol/L dithiothreitol), and the mixture was incubated at 4° C. overnight to obtain a PDH/hPDHK2 complex. […] The mixture was incubated at room temperature for 90 min, and the residual PDH activity was measured. The absorbance at 340 nm before and after PDH reaction was measured using a microplate reader to detect NADH produced by the PDH reaction. […]

CC(C)(C(N)=O)n1cc(-c2cc(F)cc3c2-c2ccccc2[C@]3(O)C(F)(F)F)cn1 [compound (D), 2-{4-[(9R)-2-Fluoro-9-hydroxy-9-(trifluoromethyl)-9H-fluoren-4-yl]-1H-pyrazol-1-yl}-2-methylpropanamide]
IC50: 5.1 nM
